This passage reports inhibition results from PubChem BioAssay AID488896 (Broad Institute, 2010).

Chains of the proteins cited; added tags and fusions are not shown.
UniProt Q61009, whole entry: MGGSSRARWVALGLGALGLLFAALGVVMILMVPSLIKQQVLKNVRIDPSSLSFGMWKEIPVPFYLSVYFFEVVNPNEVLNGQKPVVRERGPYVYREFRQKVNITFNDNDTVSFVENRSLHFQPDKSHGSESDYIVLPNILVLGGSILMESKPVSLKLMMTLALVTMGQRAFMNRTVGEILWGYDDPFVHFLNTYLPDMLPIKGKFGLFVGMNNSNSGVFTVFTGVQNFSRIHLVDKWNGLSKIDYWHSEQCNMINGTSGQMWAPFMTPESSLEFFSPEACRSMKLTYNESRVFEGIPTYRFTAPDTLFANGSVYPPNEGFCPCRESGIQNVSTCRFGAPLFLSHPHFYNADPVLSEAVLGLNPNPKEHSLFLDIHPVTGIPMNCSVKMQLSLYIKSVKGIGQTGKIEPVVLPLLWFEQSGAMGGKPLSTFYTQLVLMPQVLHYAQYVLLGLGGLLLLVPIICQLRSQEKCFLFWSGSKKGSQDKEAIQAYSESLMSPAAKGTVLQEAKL

The entries are a selection whose mix differs from that of the whole data set. Some salts or complexes appear as unconnected parts, following the source record. Active and inactive are the calls of the source.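 The calls were made as follows: active = mean replicate inhibition of at least 70% and a set share of replicates each scoring 70 or more; inconclusive = meets just one of the two criteria; inactive = fails both criteria.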

This assay concerns the target Scavenger receptor class B member 1 (Mus musculus) (UniProt Q61009). The assay is described as follows: inhibitors of SR-BI mediated HDL lipid uptake, primary screen, ldlA[mSR-BI] cells, fluorescence, single point (AID 488896).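 Also: 0% = median of neutral control wells and 100% = median of positive control wells.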 The conditions noted are these: ldlA[mSR-BI] CHO cells, DiI-HDL uptake fluorescence, 3 h; at 12.5 µM; hits give high values.
Take `CCN(CC)CCCOC(=O)C(O)(c1ccccc1)c1ccccc1`: the inhibition was inactive: 1.84%.

Consider `O=[N+]([O-])c1cc([N+](=O)[O-])c(Nc2cccnc2)c([N+](=O)[O-])c1`, for which the inhibition is inactive: -23.5%.

Regarding `Cc1cccc(C)c1OP(C)(N)=O` (stereo unspecified), the inhibition is inactive: -19.3%.

Regarding `CC(C)(C)c1ccc(OP(C)(=O)Nc2ccc(SC(F)(F)F)cc2)cc1` (stereo unspecified), the inhibition was inactive: 14.6%.

Take `O=[N+]([O-])c1ccc2c(c1)C=Nc1ccccc1O2`: the inhibition was inactive: 3.46%.

As for `CCOC(=O)c1ccc(NP(C)(=O)Oc2ccccc2)cc1` (stereo unspecified), the inhibition was inactive: -16.8%.

For the compound `Cc1ccc(NP(C)(=O)Oc2ccccc2)c(C)c1` (stereo unspecified), the inhibition was inactive: 4.88%.

As for `COc1ccccc1OP(C)(=O)Nc1ccc(C)cc1` (stereo unspecified), the inhibition was inactive: -22.8%.

For the compound `COc1ccc(OP(C)(=O)Nc2cccc(F)c2)cc1` (stereo unspecified), the inhibition was inactive: 2.58%.

In the case of `COc1ccccc1OP(C)(=O)Nc1cc(Cl)ccc1C` (stereo unspecified), the inhibition was inactive: 28.8%.

Regarding `Cc1cc(C)cc(OP(C)(N)=O)c1` (stereo unspecified), the inhibition is inactive: -31.1%.

For `CP(=S)(Nn1cnnc1)Oc1ccccc1` (stereo unspecified), the inhibition was inactive: -11.6%.

On to `COc1ccccc1OP(C)(=O)Nc1ccccc1` (stereo unspecified), for which the inhibition was inactive: -3.69%.

With `CP(=O)(Nc1ccccc1Br)Oc1ccccc1` (stereo unspecified), the inhibition is inactive: -63.6%.

`CP(=O)(Oc1ccccc1)OC(c1ccccc1)C(F)(F)F` (stereo unspecified): the inhibition is inactive: -23.4%.

As to `Cc1cccc(C)c1OP(C)(=O)Nc1ccc(SC(F)(F)F)cc1` (stereo unspecified), the inhibition was inactive: 15.2%.

In the case of `Cc1cc(C)cc(OP(C)(=O)Nc2ccc(SC(F)(F)F)cc2)c1` (stereo unspecified), the inhibition is inactive: -15.3%.

Turning to `CP(=O)(NC(=O)Nc1ccccc1)Oc1ccccc1` (stereo unspecified), the inhibition is inactive: -31%.

For `CCOP(C)(=S)SCC(=O)NC(C)C(=O)O` (stereo unspecified), the inhibition is inactive: -11.2%.

On to `CCOC(=O)c1ccc(NP(C)(=O)Oc2ccc(OC)cc2)cc1` (stereo unspecified), for which the inhibition was inactive: 15.4%.

For `CP(=O)(Nc1ccccn1)Oc1ccc(Cl)cc1` (stereo unspecified), the inhibition is inactive: -15.7%.

Consider `O=[N+]([O-])c1cc([N+](=O)[O-])c(-n2nnc3ccccc32)c([N+](=O)[O-])c1`, for which the inhibition is inactive: -12.8%.

Take `O=[N+]([O-])c1cc([N+](=O)[O-])c(-c2cnn(-c3ccccc3)c2)c([N+](=O)[O-])c1`: the inhibition was inactive: 31.8%.

As to `Cc1nc2ccc3ccccc3c2s1.O=[N+]([O-])c1cc([N+](=O)[O-])c(O)c([N+](=O)[O-])c1`, the inhibition is inactive: 10.9%.

With `CCOC(=O)C(CC)C1=NC(C)(C)Cc2ccccc21.O=[N+]([O-])c1cc([N+](=O)[O-])c(O)c([N+](=O)[O-])c1` (stereo unspecified), the inhibition is inactive: 1.44%.

Turning to `CC1=C2N=C(C=C3N=C(C(C)=C4[N-][C@@](C)([C@@H]5N=C1[C@](C)(CCC(=O)NC[C@@H](C)OP(=O)([O-])O[C@H]1[C@@H](O)[C@@H](n6cnc7cc(C)c(C)cc76)O[C@@H]1CO)[C@H]5CC(N)=O)[C@@](C)(CC(N)=O)[C@@H]4CCC(N)=O)[C@@](C)(CC(N)=O)[C@@H]3CCC(N)=O)C(C)(C)[C@@H]2CCC(N)=O.[C-]#N.[Co+3]`, the inhibition is inactive: -3.45%.

As for `O=[N+]([O-])c1cc([N+](=O)[O-])c(Nc2nnnn2CCO)c([N+](=O)[O-])c1`, the inhibition was inactive: -7.74%.

With `COc1ccccc1OP(C)(=O)Nc1c(C)cccc1C` (stereo unspecified), the inhibition was inactive: -12.9%.

`CN1CCCCC1COC(=O)C1(O)c2ccccc2CCc2ccccc21` (stereo unspecified): the inhibition was inactive: 3.92%.

Regarding `CCCOc1ccc(NP(C)(=O)Oc2ccc(Cl)cc2)cc1` (stereo unspecified), the inhibition is inactive: 6.06%.

Turning to `CP(=O)(Nc1ccc(SC(F)(F)F)cc1)Oc1ccccc1` (stereo unspecified), the inhibition is inactive: -4.62%.

As for `COc1ccccc1OP(C)(=O)Nc1cccc(Br)c1` (stereo unspecified), the inhibition was inactive: -8.69%.

`Cc1cc(C)cc(OP(C)(=O)Nc2ccc(C)cc2C)c1` (stereo unspecified): the inhibition is inactive: 27.2%.

`CCOC(=O)c1ccc(NP(C)(=O)Oc2cc(C)cc(C)c2)cc1` (stereo unspecified): the inhibition is inactive: 6.86%.

Regarding `Cc1cc(C)cc(OP(C)(=O)Nc2ccccn2)c1` (stereo unspecified), the inhibition is inactive: -8.53%.

As for `CP(=O)(Nc1cccc(Br)c1)Oc1ccccc1` (stereo unspecified), the inhibition was inactive: 1.13%.

As to `Cc1ccc(C)c(NP(C)(=O)Oc2ccccc2)c1` (stereo unspecified), the inhibition was inactive: -9.76%.

With `CC(C)c1ccc(OP(C)(=O)Nc2ccc(SC(F)(F)F)cc2)cc1` (stereo unspecified), the inhibition was inactive: -2.21%.

Regarding `CP(=O)(Nc1ccccc1F)Oc1ccccc1` (stereo unspecified), the inhibition is inactive: -9.12%.

For `O=C(OCCN1CCN(CCOCc2ccccc2)CC1)C(O)(c1ccccc1)c1ccccc1`, the inhibition is inactive: -0.742%.

With `O=C(OC1CN2CCC1CC2)c1ccc([N+](=O)[O-])cc1` (stereo unspecified), the inhibition was inactive: -6.48%.

Turning to `COc1ccc2c(c1O)-c1c(O)c(OC)cc3c1[C@H](C2)[N+](C)(C)CC3.O=[N+]([O-])c1cc([N+](=O)[O-])c([O-])c([N+](=O)[O-])c1[O-]`, the inhibition is inactive: -13.3%.

Turning to `COc1ccc(OP(C)(=O)Nc2ccc(SC(F)(F)F)cc2)cc1` (stereo unspecified), the inhibition was inactive: -43.5%.

`CCOC(=O)c1ccc(NP(C)(=O)Oc2ccc(F)cc2)cc1` (stereo unspecified): the inhibition was inactive: 2.22%.

Regarding `CCN(CC)CCCOC(=O)C(O)(c1ccccc1)C1CCCCC1` (stereo unspecified), the inhibition was inactive: -23.1%.

Regarding `Cc1c([N+](=O)[O-])cc([N+](=O)[O-])c(Br)c1[N+](=O)[O-]`, the inhibition was inactive: 12.9%.

Take `CCCCCOc1ccc(NP(C)(=O)Oc2ccc(Cl)cc2Cl)cc1` (stereo unspecified): the inhibition is inactive: -21.1%.

On to `O=[N+]([O-])c1cc([N+](=O)[O-])c(OC2CCCCC2O)c([N+](=O)[O-])c1` (stereo unspecified), for which the inhibition was inactive: 1.94%.

For `CP(=O)(Nc1ccccc1)Oc1ccc(F)cc1` (stereo unspecified), the inhibition was inactive: -17%.

Regarding `COc1ccc(OP(C)(=O)Nc2cccc(Br)c2)cc1` (stereo unspecified), the inhibition was inactive: -2.34%.

In the case of `COc1ccc(NP(C)(=O)Oc2ccccc2OC)cc1` (stereo unspecified), the inhibition is inactive: 15%.

Turning to `CN(C)CCOC(=O)C(O)(c1ccccc1)C1CCCCC1` (stereo unspecified), the inhibition was inactive: 9.97%.

For `Cc1cc(-c2cccc3ccccc23)c(C)cn1.O=[N+]([O-])c1cc([N+](=O)[O-])c(O)c([N+](=O)[O-])c1`, the inhibition was inactive: 13.1%.

Take `O=[N+]([O-])c1cc([N+](=O)[O-])c(NCC2CCS(=O)(=O)C2)c([N+](=O)[O-])c1` (stereo unspecified): the inhibition was inactive: -31.9%.

In the case of `O=[N+]([O-])c1ccc(OP2(=O)COCCO2)cc1` (stereo unspecified), the inhibition is inactive: -0.356%.

Consider `CP(=O)(Nc1ccc(SC(F)(F)F)cc1)Oc1ccc(F)cc1` (stereo unspecified), for which the inhibition is inactive: -2.3%.
